# Antibody variant affinities, Ab-95 light chain, assay 2

Values reported by Engelhart et al. 2022, doi:10.1038/s41597-022-01779-4 (FLAb copy).

Target: peptide PDVDLGDISGINAS, taken from heptad repeat 2 (HR2) of SARS-CoV-2 spike.

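The starting antibody came from a phage panning campaign against this peptide. The library (AAYL52) carries one to three amino acid substitutions per variant, with no insertions or deletions. The assay is AlphaSeq: two haploid yeast populations carry antibody and antigen on their surface. Mating (16 h, 30 °C) was followed by selection of diploids and sequencing of their barcodes. Each replicate has its own calibration line, from reference interactions of the BCL2 family. Each pool was mated in three replicate cultures.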

Parent: Ab-95, a human scFv built as VH, three GGGGS repeats, VL. Only the CDRs of the light chain vary.
VH: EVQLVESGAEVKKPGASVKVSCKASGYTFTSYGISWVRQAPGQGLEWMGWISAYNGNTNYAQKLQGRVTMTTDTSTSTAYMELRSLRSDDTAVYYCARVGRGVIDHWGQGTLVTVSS
VL: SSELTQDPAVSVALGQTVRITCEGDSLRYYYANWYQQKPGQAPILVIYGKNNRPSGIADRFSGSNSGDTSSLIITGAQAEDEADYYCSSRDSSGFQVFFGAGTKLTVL

Variants are written as CDR1, CDR2 and CDR3 of the light chain (limits as in the source). Parent: EGDSLRYYYAN, GKNNRPS, SSRDSSGFQVF. Values are log10 of the apparent Kd in nM; lower means stronger binding. "n.d." means that the variant was in the library but no mating with the target was seen in that replicate; the authors take this as a sign of poor binding, and no number exists. Empty control strains, which show no peptide, gave a signal in 28% of pairings with library AAYL52; the median was 3.91 and 95% of these signals were weaker than 2.90. No background was subtracted. For each scFv, signals with the empty controls are counted beside the result, with their mean in brackets.

| # | CDR-L1 | CDR-L2 | CDR-L3 | log10 Kd (nM) by replicate | control signals |
|---|---|---|---|---|---|
| 1 | EMDSLRYYYAN | GKNDRTS | SSRDSSGFQVF | 3.34 / 4.55 / n.d. | 2 of 9 (4.06) |
| 2 | EGDSLRYYYAN | NKGNRPS | SSRDSSGFQVC | n.d. / 2.88 / n.d. | 4 of 9 (3.87) |
| 3 | EGDSLIYYYDN | GKNNRPS | SSRDSSGFNVF | 1.75 / 1.94 / 1.39 | 6 of 9 (3.97) |
| 4 | EGDSLRYYYAN | KKNNRPS | SSRDSSGWQVQ | 3.34 / n.d. / n.d. | 1 of 9 (4.12) |
| 5 | EGDSLRYYYAN | GKNNRPS | FSADSSGFQVF | 2.33 / 2.59 / 1.45 | 4 of 9 (3.88) |
| 6 | EGLSLYYYYAN | GKNNRPR | SSRDSSGFQVF | 3.36 / 4.27 / n.d. | 2 of 9 (3.97) |
| 7 | EGDQLRYYYAN | GKNNRPS | LSRDSSGFQCF | 3.48 / 5.17 / n.d. | 3 of 9 (3.52) |
| 8 | EGDALRYYYAN | GKPNRPE | SSRDSSGFQVF | 4.57 / 3.76 / 4.42 | 2 of 9 (3.89) |
| 9 | EGDVLRYYYAN | GLNVRPS | SSRDSSGFQVF | 2.44 / 2.85 / 2.77 | 3 of 9 (4.10) |
| 10 | EGDSKRYYYAC | GKNNIPS | SSRDSSGFQVF | n.d. / n.d. / n.d. | 5 of 9 (4.11) |
| 11 | EGDSLRYYYAN | GKNNRPS | SSRDDSGFPQF | 2.75 / 3.81 / 4.19 | 1 of 9 (3.73) |
| 12 | EWDSLRYYYAN | GKNNEPS | SSRDSSMFQVF | 3.98 / n.d. / n.d. | 1 of 9 (3.67) |
| 13 | EGDSLRYYYAN | GKNNRPS | SSRWSSGVQVF | 3.06 / 2.61 / 2.00 | 5 of 9 (4.04) |
| 14 | EGDSLRPYYAN | GKNNRPQ | SGRDSSGFQVF | 3.07 / 3.15 / 2.41 | 3 of 9 (4.41) |
| 15 | EGDSLGYYYAN | GKNNYPS | SSRDSSFFQVF | n.d. / n.d. / n.d. | 1 of 9 (4.28) |
| 16 | EGDSLRCMYAN | GKNNRPS | TSRDSSGFQVF | 2.17 / 1.74 / 1.54 | 4 of 9 (4.26) |
| 17 | EGDSLRWYYAN | GKNNRPS | SSADSSGFQVF | 3.05 / n.d. / 3.19 | 2 of 9 (4.14) |
| 18 | PGDSLFYYYAN | GKNNRPS | NSRDSSGFQVF | n.d. / n.d. / n.d. | 1 of 9 (3.77) |
| 19 | EGDSLRYYYAN | GKNNEPS | ASRDSVGFQVF | 4.33 / 4.47 / n.d. | 3 of 9 (3.82) |
| 20 | EGDSLRWYFAN | GYNNRPS | SSRDSSGFQVF | 3.60 / 3.48 / n.d. | 6 of 9 (4.02) |
| 21 | EGDSLCYYYAN | GKNNRPS | SRRDSSHFQVF | n.d. / 5.35 / n.d. | 2 of 9 (3.47) |
| 22 | EGDELRSYYAN | NKNNRPS | SSRDSSGFQVF | n.d. / n.d. / n.d. | 0 of 9 |
| 23 | EGDSFRYYYAN | GKNNRPG | SSRDSVGFQVF | 2.83 / 5.68 / n.d. | 1 of 9 (4.03) |
| 24 | EGDQLRYYYAN | GKNNRPS | SSRDSSFFQVF | 4.34 / 3.63 / 3.06 | 4 of 9 (3.85) |
| 25 | EGDSLRYYYAY | GHNNRPD | SSRDSSGFQVF | 4.95 / n.d. / 3.86 | 5 of 9 (4.16) |
| 26 | PGDSLRYYYAN | GKNNRPS | SSEDSSGFWVF | n.d. / 4.24 / 4.46 | 4 of 9 (3.71) |
| 27 | EGDSLRYYYRM | GKNRRPS | SSRDSSGFQVF | 5.16 / n.d. / 2.86 | 2 of 9 (2.76) |
| 28 | EGDSLRYYYAN | LKNGRPS | SSTDSSGFQVF | 4.85 / 3.51 / n.d. | 2 of 9 (3.92) |
| 29 | EGDSLRYYKAN | GKNNHPS | PSRDSSGFQVF | 3.16 / 3.26 / n.d. | 0 of 9 |
| 30 | EGDSLRYYYAN | GKNSAPS | SSRDSSGLQVF | n.d. / 3.80 / 3.86 | 0 of 9 |
| 31 | EGDSLRYYYAN | GKNNRPS | SIRDSSGVEVF | 3.43 / 3.45 / 2.39 | 1 of 9 (5.34) |
| 32 | EVDPLRYYYAN | GYNNRPS | SSRDSSGFQVF | 5.29 / n.d. / n.d. | 5 of 9 (3.68) |
| 33 | EGDSLRYYYAN | GKNNRPS | SSPYSSGPQVF | n.d. / 3.28 / 3.39 | 0 of 9 |

Picked from the list: the 3 lowest averages where every replicate gave a value.

{"CDR-L1": "EGDSLIYYYDN", "CDR-L2": "GKNNRPS", "CDR-L3": "SSRDSSGFNVF", "log10 Kd (nM) by replicate": "1.75 / 1.94 / 1.39", "control signals": "6 of 9 (3.97)"}
{"CDR-L1": "EGDSLRCMYAN", "CDR-L2": "GKNNRPS", "CDR-L3": "TSRDSSGFQVF", "log10 Kd (nM) by replicate": "2.17 / 1.74 / 1.54", "control signals": "4 of 9 (4.26)"}
{"CDR-L1": "EGDSLRYYYAN", "CDR-L2": "GKNNRPS", "CDR-L3": "FSADSSGFQVF", "log10 Kd (nM) by replicate": "2.33 / 2.59 / 1.45", "control signals": "4 of 9 (3.88)"}